From US20150150960A1, “PROTECTION AGAINST DENGUE VIRUS AND PREVENTION OF SEVERE DENGUE DISEASE” (priority 2010, published 2015)

system: PBMC of DENV seropositive human donors; type: cell-based; conditions: allele A*2402; ex vivo IFNγ ELISPOT, Sri Lankan donors

In order of falling “T cell response [SFC]” value:
1. CC[C@H](C)[C@H](N)C(=O)N[C@H](C(=O)N1CCC[C@H]1C(=O)N[C@@H](CCSC)C(=O)N[C@@H](CC(C)C)C(=O)N[C@@H](CCCNC(=N)N)C(=O)N[C@@H](Cc1c[nH]cn1)C(=O)N[C@H](C(=O)N[C@H](C(=O)O)[C@@H](C)CC)[C@@H](C)O)[C@@H](C)O  193 SFC
2. CC(C)C[C@H](N)C(=O)N[C@@H](Cc1c[nH]c2ccccc12)C(=O)N[C@@H](CCC(=O)O)C(=O)NCC(=O)N[C@@H](CO)C(=O)N1CCC[C@H]1C(=O)NCC(=O)N[C@@H](CCCCN)C(=O)N[C@@H](Cc1ccccc1)C(=O)O  57 SFC

same assay, conditions: allele A*3301; ex vivo IFNγ ELISPOT, Sri Lankan donors

In the case of CC(C)C[C@H](NC(=O)[C@H](CCC(N)=O)NC(=O)[C@@H](NC(=O)[C@H](Cc1ccc(O)cc1)NC(=O)[C@@H](N)C(C)C)[C@@H](C)O)C(=O)N[C@@H](CS)C(=O)N[C@@H](CC(=O)O)C(=O)N[C@@H](Cc1c[nH]cn1)C(=O)N[C@@H](CCCNC(=N)N)C(=O)O, the “T cell response [SFC]” value is reported as 28 SFC.

same assay, conditions: allele B*0702; ex vivo IFNγ ELISPOT, Sri Lankan donors

In order of falling “T cell response [SFC]” value:
1. CC[C@H](C)[C@H](N)C(=O)N1CCC[C@H]1C(=O)N[C@@H](CCSC)C(=O)N[C@@H](C)C(=O)N[C@H](C(=O)N[C@@H](Cc1ccc(O)cc1)C(=O)NCC(=O)N[C@@H](Cc1c[nH]c2ccccc12)C(=O)N[C@@H](CC(N)=O)C(=O)N[C@@H](CC(C)C)C(=O)O)[C@@H](C)O  450 SFC
2. CC[C@H](C)[C@H](NC(=O)[C@@H](NC(=O)[C@@H]1CCCN1C(=O)[C@H](CO)NC(=O)CNC(=O)[C@H](CO)NC(=O)[C@@H](NC(=O)CNC(=O)[C@@H]1CCCN1C(=O)[C@@H](N)CCCCN)[C@@H](C)O)[C@@H](C)CC)C(=O)O  365 SFC
3. C[C@H](NC(=O)[C@@H](NC(=O)[C@H](CCC(N)=O)NC(=O)[C@@H](NC(=O)[C@H](Cc1c[nH]cn1)NC(=O)[C@H](Cc1ccc(O)cc1)NC(=O)CNC(=O)[C@@H]1CCCN1C(=O)[C@@H](N)CCCNC(=N)N)[C@@H](C)O)[C@@H](C)O)C(=O)O  177 SFC
4. CC(C)C[C@H](NC(=O)[C@H](CS)NC(=O)[C@H](CCCNC(=N)N)NC(=O)[C@H](CCCNC(=N)N)NC(=O)[C@@H]1CCCN1C(=O)[C@@H](N)CC(=O)O)C(=O)N[C@@H](CCCCN)C(=O)N1CCC[C@H]1C(=O)N[C@H](C(=O)O)C(C)C  115 SFC
5. CC[C@H](C)[C@H](NC(=O)CNC(=O)[C@H](CCC(=O)O)NC(=O)[C@@H]1CCCN1C(=O)[C@@H](N)[C@@H](C)O)C(=O)N[C@H](C(=O)N1CCC[C@H]1C(=O)N[C@@H](CO)C(=O)N[C@@H](CCSC)C(=O)O)[C@@H](C)CC  108 SFC
6. CC[C@H](C)[C@H](NC(=O)[C@@H](NC(=O)[C@@H](NC(=O)[C@H](CC(N)=O)NC(=O)[C@H](Cc1c[nH]c2ccccc12)NC(=O)[C@H](Cc1ccccc1)NC(=O)[C@H](CCCCN)NC(=O)CNC(=O)[C@@H]1CCCN1C(=O)[C@@H](N)CO)[C@@H](C)O)[C@@H](C)O)C(=O)O  105 SFC
7. CC[C@H](C)[C@H](NC(=O)[C@@H](NC(=O)[C@@H]1CCCN1C(=O)[C@@H](N)CO)[C@@H](C)CC)C(=O)N[C@@H](CC(N)=O)C(=O)N[C@@H](CCCNC(=N)N)C(=O)N[C@@H](CCC(=O)O)C(=O)NCC(=O)N[C@@H](CCCCN)C(=O)N[C@H](C(=O)O)C(C)C  105 SFC
8. CC[C@H](C)[C@H](NC(=O)[C@H](C)NC(=O)[C@@H](NC(=O)[C@H](C)NC(=O)[C@H](CC(C)C)NC(=O)[C@H](CCCNC(=N)N)NC(=O)[C@H](CCCCN)NC(=O)[C@@H]1CCCN1C(=O)[C@@H](N)CO)[C@@H](C)O)C(=O)N[C@@H](C)C(=O)O  102 SFC
9. CC[C@H](C)[C@H](NC(=O)[C@H](Cc1ccccc1)NC(=O)[C@H](C)NC(=O)[C@H](CCSC)NC(=O)[C@@H](NC(=O)[C@H](CC(C)C)NC(=O)[C@H](CCCCN)NC(=O)[C@H](CCSC)NC(=O)[C@@H]1CCCN1C(=O)CN)C(C)C)C(=O)O  62 SFC
10. CC(C)C[C@H](NC(=O)[C@H](CCC(=O)O)NC(=O)[C@H](CC(C)C)NC(=O)[C@H](CCCCN)NC(=O)CNC(=O)[C@H](CC(C)C)NC(=O)[C@H](Cc1c[nH]cn1)NC(=O)[C@H](Cc1c[nH]c2ccccc12)NC(=O)[C@@H]1CCCN1C(=O)CN)C(=O)O  53 SFC
11. CC(C)C[C@H](NC(=O)[C@H](CC(C)C)NC(=O)CNC(=O)CNC(=O)[C@H](C)NC(=O)[C@@H](NC(=O)[C@H](CC(C)C)NC(=O)[C@@H]1CCCN1C(=O)CN)C(C)C)C(=O)O  35 SFC

same assay, conditions: allele B*1501; ex vivo IFNγ ELISPOT, Sri Lankan donors

In the case of CC[C@H](C)[C@H](NC(=O)[C@H](CCC(N)=O)NC(=O)[C@@H](N)CCCCN)C(=O)N[C@@H](C)C(=O)N[C@@H](CC(N)=O)C(=O)N[C@@H](CCC(=O)O)C(=O)N[C@@H](CC(C)C)C(=O)N[C@@H](CC(N)=O)C(=O)N[C@@H](Cc1ccc(O)cc1)C(=O)O, the “T cell response [SFC]” value is reported as 22 SFC.

same assay, conditions: allele B*3501; ex vivo IFNγ ELISPOT, Sri Lankan donors

In order of falling “T cell response [SFC]” value:
1. CC[C@H](C)[C@H](NC(=O)CNC(=O)[C@H](CCC(=O)O)NC(=O)[C@@H]1CCCN1C(=O)[C@@H](N)[C@@H](C)O)C(=O)N[C@H](C(=O)N1CCC[C@H]1C(=O)N[C@@H](CO)C(=O)N[C@@H](CCSC)C(=O)O)[C@@H](C)CC  295 SFC
2. CC(C)C[C@H](NC(=O)[C@H](CCCCN)NC(=O)[C@@H](NC(=O)[C@H](CCCCN)NC(=O)[C@@H]1CCCN1C(=O)[C@@H](N)Cc1ccc(O)cc1)[C@@H](C)O)C(=O)N[C@H](C(=O)N[C@@H](CC(=O)O)C(=O)N[C@@H](Cc1c[nH]c2ccccc12)C(=O)N[C@@H](CC(=O)O)C(=O)O)[C@@H](C)O  267 SFC
3. C[C@@H](O)[C@H](N)C(=O)N1CCC[C@H]1C(=O)N1CCC[C@H]1C(=O)NCC(=O)N[C@@H](CO)C(=O)N[C@@H](CCCNC(=N)N)C(=O)N[C@@H](CC(=O)O)C(=O)N1CCC[C@H]1C(=O)N[C@@H](Cc1ccccc1)C(=O)O  210 SFC
4. CC[C@H](C)[C@H](NC(=O)[C@H](C)NC(=O)[C@@H]1CCCN1C(=O)[C@@H](NC(=O)[C@H](CCC(N)=O)NC(=O)[C@H](Cc1ccc(O)cc1)NC(=O)[C@H](CCCNC(=N)N)NC(=O)[C@@H](NC(=O)[C@@H]1CCCN1C(=O)[C@@H](N)CC(C)C)[C@@H](C)CC)[C@@H](C)O)C(=O)O  195 SFC
5. CC[C@H](C)[C@H](NC(=O)[C@H](CO)NC(=O)[C@H](C)NC(=O)[C@@H]1CCCN1C(=O)[C@@H](N)CC(=O)O)C(=O)N[C@@H](C)C(=O)N[C@@H](C)C(=O)N[C@@H](CCCNC(=N)N)C(=O)NCC(=O)N[C@@H](Cc1ccc(O)cc1)C(=O)O  183 SFC
6. CC[C@H](C)[C@H](NC(=O)[C@H](CO)NC(=O)[C@@H](NC(=O)[C@H](CCSC)NC(=O)CNC(=O)[C@@H](NC(=O)[C@H](C)NC(=O)[C@@H](N)CCSC)C(C)C)C(C)C)C(=O)N[C@@H](CC(C)C)C(=O)O  172 SFC
7. C[C@H](NC(=O)[C@@H]1CCCN1C(=O)[C@@H](N)CC(N)=O)C(=O)N[C@@H](CCC(N)=O)C(=O)N[C@@H](CCC(=O)O)C(=O)N[C@@H](CC(=O)O)C(=O)N[C@@H](CC(=O)O)C(=O)N[C@@H](CCC(N)=O)C(=O)N[C@@H](Cc1ccc(O)cc1)C(=O)O  118 SFC
8. CC[C@H](C)[C@H](NC(=O)[C@H](CC(=O)O)NC(=O)[C@H](CC(=O)O)NC(=O)[C@H](CCC(=O)O)NC(=O)[C@@H](NC(=O)[C@H](CCC(=O)O)NC(=O)[C@@H]1CCCN1C(=O)[C@@H](N)CC(N)=O)[C@@H](C)CC)C(=O)N[C@@H](Cc1ccccc1)C(=O)O  110 SFC
9. CC[C@H](C)[C@H](NC(=O)[C@@H]1CCCN1C(=O)[C@@H](NC(=O)[C@H](CO)NC(=O)[C@@H](NC(=O)[C@@H]1CCCN1C(=O)[C@@H](N)Cc1ccccc1)C(C)C)[C@@H](C)CC)C(=O)N[C@H](C(=O)N[C@@H](C)C(=O)N[C@@H](C)C(=O)O)[C@@H](C)O  35 SFC
